Experimental data published in PubChem BioAssay AID1048 (The Scripps Research Institute Molecular Screening Center, 2008).
This is a selection; strong and weak results do not stand in their true shares. The source made the active and inactive calls. Rule as the data show it: active = TR-FRET ratio above about 2000; inactive = the rest.

Test: signal artefacts in PPARgamma/SRC-3 readout – biochemical, TR-FRET ratio, artefact control for PPARgamma SRC-3 recruitment agonists (AID 1048)
Settings: TR-FRET artefact counter-screen, PPARgamma/SRC-3 format; at 8 µM; active compounds read high

SMILES	TR-FRET ratio
N#Cc1ccc(C(=O)NCC2(N3CCCCC3)CCCCC2)cc1	inactive: 1650
O=C(OC1CN2CCC1CC2)C1c2ccccc2C=Cc2ccccc21 (stereo not given)	inactive: 1560
COc1ccc(C(=O)NCC2(N3CCOCC3)CCCCC2)cc1OC	inactive: 1550
COc1cc(OC)cc(C(=O)NCC2(N3CCOCC3)CCCCC2)c1	inactive: 1670
CC(C)(C)OC(=O)N1CCC(Nc2ccccc2)CC1	inactive: 1540
CN(C)c1ccc(C(=O)NCC2(N3CCCCC3)CCCCC2)cc1	inactive: 1320
CCN1CCC(Nc2cccc(F)c2)CC1	inactive: 1870
CCOC(=O)N1CCC(Nc2ccc(OC)cc2)CC1	inactive: 1390
COc1ccc(C(=O)NCC2(N3CCCCC3)CCCCC2)c(OC)c1OC	inactive: 1590
COc1ccc(CN(CCCl)CCCl)cc1Cl	inactive: 1400
CN(C)c1cccc(C(=O)NCC2(N3CCCCC3)CCCCC2)c1	inactive: 1370
CC(C)c1ccc(NC2CCN(C(=O)OC(C)(C)C)CC2)cc1	inactive: 1520
CN1CCN(CCOC(=O)C(O)(c2ccccc2)c2ccccc2)CC1	inactive: 1490
COc1ccc(NC2CCN(C(=O)OC(C)(C)C)CC2)cc1	inactive: 1540
O=C(NCC1(N2CCCCC2)CCCCC1)c1cccc([N+](=O)[O-])c1	inactive: 1660
